Protein sequences, listed by entry. Tags and fused reporters are not part of them. Residues count along the entry.
UniProt P07949, 29-1114: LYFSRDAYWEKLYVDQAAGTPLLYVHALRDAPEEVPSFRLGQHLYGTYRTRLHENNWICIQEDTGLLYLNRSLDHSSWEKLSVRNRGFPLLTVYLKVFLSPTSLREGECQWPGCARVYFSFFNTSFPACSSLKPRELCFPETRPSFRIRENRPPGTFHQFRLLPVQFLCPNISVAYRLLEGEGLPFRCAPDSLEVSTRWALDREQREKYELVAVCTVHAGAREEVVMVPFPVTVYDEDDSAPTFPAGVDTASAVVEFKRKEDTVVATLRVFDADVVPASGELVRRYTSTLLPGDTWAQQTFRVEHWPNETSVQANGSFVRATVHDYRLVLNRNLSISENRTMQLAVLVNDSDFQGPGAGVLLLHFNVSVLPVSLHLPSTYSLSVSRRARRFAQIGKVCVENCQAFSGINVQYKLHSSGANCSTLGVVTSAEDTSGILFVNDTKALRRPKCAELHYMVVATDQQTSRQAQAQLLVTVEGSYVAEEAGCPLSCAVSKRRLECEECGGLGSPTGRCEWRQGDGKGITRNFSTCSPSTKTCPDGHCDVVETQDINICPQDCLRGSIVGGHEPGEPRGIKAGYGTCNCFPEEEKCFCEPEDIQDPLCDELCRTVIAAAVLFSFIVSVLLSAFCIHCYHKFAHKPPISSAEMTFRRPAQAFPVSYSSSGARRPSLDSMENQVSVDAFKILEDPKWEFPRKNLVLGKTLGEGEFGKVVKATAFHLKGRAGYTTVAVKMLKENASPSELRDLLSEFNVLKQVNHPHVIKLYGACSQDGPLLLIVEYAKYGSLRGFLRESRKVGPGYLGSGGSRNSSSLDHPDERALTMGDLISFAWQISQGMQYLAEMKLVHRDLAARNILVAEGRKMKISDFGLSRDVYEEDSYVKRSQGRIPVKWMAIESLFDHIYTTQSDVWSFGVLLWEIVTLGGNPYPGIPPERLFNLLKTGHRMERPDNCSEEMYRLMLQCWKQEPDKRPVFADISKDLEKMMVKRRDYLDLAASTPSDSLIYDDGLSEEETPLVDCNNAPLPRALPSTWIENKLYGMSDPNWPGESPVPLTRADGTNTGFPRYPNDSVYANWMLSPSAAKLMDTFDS
UniProt P35968, 20-1356: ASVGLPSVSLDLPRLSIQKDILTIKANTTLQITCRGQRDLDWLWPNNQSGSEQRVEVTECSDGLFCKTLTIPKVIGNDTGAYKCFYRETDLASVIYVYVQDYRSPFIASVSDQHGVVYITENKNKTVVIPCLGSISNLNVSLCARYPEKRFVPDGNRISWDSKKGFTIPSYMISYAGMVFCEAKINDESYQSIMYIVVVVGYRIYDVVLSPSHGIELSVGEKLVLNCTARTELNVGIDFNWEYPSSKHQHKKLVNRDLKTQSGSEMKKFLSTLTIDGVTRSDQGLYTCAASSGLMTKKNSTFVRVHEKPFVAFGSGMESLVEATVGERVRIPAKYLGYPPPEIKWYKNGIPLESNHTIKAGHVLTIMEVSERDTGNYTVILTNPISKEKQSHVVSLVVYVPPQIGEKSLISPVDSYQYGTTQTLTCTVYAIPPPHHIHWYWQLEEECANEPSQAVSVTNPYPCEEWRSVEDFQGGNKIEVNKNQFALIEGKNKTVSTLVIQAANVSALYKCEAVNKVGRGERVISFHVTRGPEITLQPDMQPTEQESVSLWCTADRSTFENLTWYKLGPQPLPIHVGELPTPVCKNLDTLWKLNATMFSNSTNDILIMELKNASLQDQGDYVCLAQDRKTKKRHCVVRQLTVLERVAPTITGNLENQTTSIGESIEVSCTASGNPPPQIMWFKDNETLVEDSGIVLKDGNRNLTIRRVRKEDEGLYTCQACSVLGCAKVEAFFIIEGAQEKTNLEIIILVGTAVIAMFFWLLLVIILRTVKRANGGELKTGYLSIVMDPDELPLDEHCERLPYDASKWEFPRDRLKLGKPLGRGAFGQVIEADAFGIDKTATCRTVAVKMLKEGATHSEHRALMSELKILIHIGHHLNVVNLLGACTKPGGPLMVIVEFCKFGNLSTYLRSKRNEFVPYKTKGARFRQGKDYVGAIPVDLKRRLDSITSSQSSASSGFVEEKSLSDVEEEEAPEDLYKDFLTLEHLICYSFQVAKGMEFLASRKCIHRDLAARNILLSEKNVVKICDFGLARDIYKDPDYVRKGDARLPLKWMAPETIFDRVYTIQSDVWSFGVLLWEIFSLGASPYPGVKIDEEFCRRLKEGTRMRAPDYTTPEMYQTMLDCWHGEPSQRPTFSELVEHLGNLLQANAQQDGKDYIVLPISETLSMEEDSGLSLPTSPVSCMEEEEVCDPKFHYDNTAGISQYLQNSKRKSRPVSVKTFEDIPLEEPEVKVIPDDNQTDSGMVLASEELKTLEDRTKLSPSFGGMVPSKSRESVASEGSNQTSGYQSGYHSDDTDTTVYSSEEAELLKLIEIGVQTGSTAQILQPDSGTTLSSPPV

According to PMC4896931, “The discovery of 2-substituted phenol quinazolines as potent RET kinase inhibitors with improved KDR selectivity” (European Journal of Medicinal Chemistry, 2016):

How the values were obtained:
[1] = target: RET (Homo sapiens, UniProt P07949); experiment: RET biochemical assay (CisBio HTRF kinEASE); settings: for Biochemical selectivity ratio: as repeated in Table 2 beside the cellular data; for Selectivity (biochemical, RET against KDR): ratio KDR IC50 / RET IC50, biochemical data
[2] = target: T1, BaF3 cells expressing KIF5B-RET (Homo sapiens, UniProt P07949+P33176); experiment: BaF3 cellular assay, RET-driven line (CellTiter-Glo viability); settings: for Cell selectivity ratio: ratio KDR IC50 / RET IC50, BaF3 cellular data; for IC50: read-out: RET IC50
T1 sequence (P33176+P07949 with tags, fused parts or gaps): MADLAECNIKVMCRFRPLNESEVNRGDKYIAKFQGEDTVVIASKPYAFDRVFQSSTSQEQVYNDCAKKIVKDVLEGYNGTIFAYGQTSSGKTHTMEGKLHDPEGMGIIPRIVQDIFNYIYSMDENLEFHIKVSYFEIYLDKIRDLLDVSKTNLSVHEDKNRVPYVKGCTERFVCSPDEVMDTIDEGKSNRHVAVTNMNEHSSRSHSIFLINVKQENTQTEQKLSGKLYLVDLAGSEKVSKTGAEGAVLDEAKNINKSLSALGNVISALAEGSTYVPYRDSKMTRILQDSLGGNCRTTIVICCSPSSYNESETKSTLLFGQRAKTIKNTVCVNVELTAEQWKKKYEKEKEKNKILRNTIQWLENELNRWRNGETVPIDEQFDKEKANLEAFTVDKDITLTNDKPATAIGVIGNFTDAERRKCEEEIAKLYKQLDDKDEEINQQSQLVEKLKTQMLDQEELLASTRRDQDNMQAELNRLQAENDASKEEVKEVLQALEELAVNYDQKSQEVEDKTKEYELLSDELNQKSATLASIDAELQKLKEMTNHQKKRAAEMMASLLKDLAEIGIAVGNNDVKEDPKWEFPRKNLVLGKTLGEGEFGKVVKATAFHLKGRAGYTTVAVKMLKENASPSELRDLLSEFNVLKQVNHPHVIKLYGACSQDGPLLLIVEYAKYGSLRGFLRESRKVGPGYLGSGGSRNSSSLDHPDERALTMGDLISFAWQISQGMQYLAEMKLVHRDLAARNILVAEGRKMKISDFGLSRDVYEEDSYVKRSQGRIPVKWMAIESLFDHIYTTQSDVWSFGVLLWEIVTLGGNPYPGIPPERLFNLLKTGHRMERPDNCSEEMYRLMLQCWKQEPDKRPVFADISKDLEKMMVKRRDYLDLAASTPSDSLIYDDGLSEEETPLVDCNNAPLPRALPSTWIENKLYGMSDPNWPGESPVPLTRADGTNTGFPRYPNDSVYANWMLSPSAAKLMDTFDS

[3] = target: KDR (Homo sapiens, UniProt P35968)

Biochemical selectivity ratio [1]	Selectivity (biochemical, RET against KDR) [1]	SMILES	Cell selectivity ratio [2]	IC50 [2] [nM]	IC50 [3] [nM]
5	5	COc1cc2ncnc(Nc3ccc(Br)cc3F)c2cc1OC [Compound 4]	2	–	–
–	13	COc1cc2ncnc(Nc3cccc(N)c3)c2cc1OC [Compound 8]	–	–	–
–	4	COc1cccc(Nc2ncnc3cc(OC)c(OC)cc23)c1 [Compound 9]	–	–	–
–	–	COc1cc2ncnc(Nc3cccc(O)c3F)c2cc1OC [Compound 14, 3-((6,7-Dimethoxyquinazolin-4-yl)amino)-2-fluorophenol]	–	570	–
–	≥9	COc1cc2ncnc(Nc3cccc(O)c3OC)c2cc1OC [Compound 15, 3-((6,7-Dimethoxyquinazolin-4-yl)amino)-2-methoxyphenol]	–	–	–
–	≥2	COc1cc2ncnc(Nc3cccc(O)c3C(F)(F)F)c2cc1OC [Compound 17, 3-((6,7-Dimethoxyquinazolin-4-yl)amino)-2-(trifluoromethyl)phenol]	–	–	–
4	4	COc1cc2ncnc(Nc3ccc(C)c(O)c3)c2cc1OC [Compound 20]	<1	–	–
6	6	COc1cc2ncnc(Nc3ccc(Cl)c(O)c3)c2cc1OC [Compound 21]	<1	–	–
18	18	COc1cc2ncnc(Nc3cc(O)ccc3F)c2cc1OC [Compound 25]	2	–	–
23	23	COc1cc2ncnc(Nc3cc(O)c(F)cc3F)c2cc1OC [Compound 28]	1	–	–
3	3	COc1cc2ncnc(Nc3cc(O)c(C)cc3F)c2cc1OC [Compound 30]	<1	–	–
–	–	COc1cc2ncnc(Nc3c(Cl)ccc(O)c3F)c2cc1OC [Compound 34, 4-Chloro-3-((6,7-dimethoxyquinazolin-4-yl)amino)-2-fluorophenol]	–	270	230
≥83	≥83	COc1cc2ncnc(Nc3c(Cl)ccc(O)c3C)c2cc1OC [Compound 37, 4-Chloro-3-((6,7-dimethoxyquinazolin-4-yl)amino)-2-methylphenol]	≥3	–	–
–	–	COc1cc2ncnc(Nc3c(Cl)ccc(O)c3Cl)c2cc1OC [Compound 39, 2,4-Dichloro-3-((6,7-dimethoxyquinazolin-4-yl)amino)phenol]	–	2200	–
–	–	COc1cc2ncnc(Nc3c(F)ccc(O)c3Cl)c2cc1OC [Compound 40, 2-Chloro-3-((6,7-dimethoxyquinazolin-4-yl)amino)-4-fluorophenol]	–	260	–
–	9	COc1cc2ncnc(Oc3cccc(O)c3)c2cc1OC [Compound 42, 3-((6,7-Dimethoxyquinazolin-4-yl)oxy)phenol]	1	–	–
